# From ChEMBL document CHEMBL2311518 (J Med Chem, 2013)
# Sequences of proteins named here, by UniProt entry; tags and fusion partners are left off. Residues count along the entry.
# UniProt P58154, 20-229 limits assumed: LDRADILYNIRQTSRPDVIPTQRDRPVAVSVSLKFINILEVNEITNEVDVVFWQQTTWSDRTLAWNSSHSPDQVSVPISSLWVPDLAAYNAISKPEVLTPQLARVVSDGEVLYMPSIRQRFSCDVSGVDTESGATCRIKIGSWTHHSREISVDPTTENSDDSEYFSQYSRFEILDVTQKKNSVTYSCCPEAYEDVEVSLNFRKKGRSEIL
# Target: Acetylcholine-binding protein (Lymnaea stagnalis, UniProt P58154)
# Conditions: hek293
structure (smiles),measurement,value
CN1CCC[C@H]1c1cccnc1 [NICOTINE],Ki,83 nM
same,pKi,7.08
